{"sequences": {"note": "The chains behind the UniProt entries cited, without tags or fusion partners.", "UniProt P21453, whole entry": "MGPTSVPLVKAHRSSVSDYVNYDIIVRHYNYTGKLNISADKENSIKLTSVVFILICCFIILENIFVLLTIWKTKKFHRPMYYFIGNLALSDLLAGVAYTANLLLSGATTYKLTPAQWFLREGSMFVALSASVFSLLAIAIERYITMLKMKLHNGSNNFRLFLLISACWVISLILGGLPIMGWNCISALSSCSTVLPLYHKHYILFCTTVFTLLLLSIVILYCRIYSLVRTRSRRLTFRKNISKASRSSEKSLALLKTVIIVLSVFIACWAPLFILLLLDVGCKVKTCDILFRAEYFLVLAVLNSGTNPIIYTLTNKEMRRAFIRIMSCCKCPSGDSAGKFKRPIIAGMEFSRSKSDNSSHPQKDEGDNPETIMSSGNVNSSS"}, "source": "patent US9522888B2", "about": "“Substituted bicyclic compounds” (BRISTOL-MYERS SQUIBB COMPANY, priority 2014, dated 2016)", "data": [{"molecular_target": "human S1P1 (Homo sapiens (Human), UniProt P21453)", "assay": "S1P1 binding assay (33P-S1P radioligand competition, CHO cell membranes)", "conditions": "33P-S1P competition, membranes of CHO cells expressing human S1P1", "experimental": "Membranes were prepared from CHO cells expressing human S1P1. Cells pellets (1×10^9 cells/pellet) were suspended in buffer containing 20 mM HEPES (4-(2-hydroxyethyl)-1-piperazineethanesulfonic acid), pH 7.5, 50 mM NaCl, 2 mM EDTA (Ethylenediaminetetraacetic acid) and Protease Inhibitor cocktail (Roche), and disrupted on ice using the Polytron homogenizer. The homogenate was centrifuged at 20,000 rpm (48,000 g) and the supernatant was discarded. The membrane pellets were resuspended in buffer containing 50 mM HEPES, pH 7.5, 100 mM NaCl, 1 mM MgCl2, 2 mM EDTA and stored in aliquots at −80° C. after protein concentration determination.\nThe IC50 is defined as the concentration of competing ligand needed to reduce specific binding by 50%.", "units": {"IC50": "nM"}, "values": [{"smiles": "COc1ccccc1CCC1CCc2cc(C3CC[C@](N)(COP(=O)(O)O)C3)ccc2C1", "note": "(single isomer, unassigned) [Example 698]", "IC50": 69.4}, {"smiles": "COc1cccc(OCC2CCc3cc([C@@H]4CC[C@](N)(COP(=O)(O)O)C4)ccc3C2)c1", "note": "(single isomer, unassigned) [Example 702]", "IC50": 151}, {"smiles": "COc1cccc(OCC2CCc3cc([C@@H]4CC[C@](N)(COP(=O)(O)O)C4)ccc3C2)c1", "note": "(single isomer, unassigned) [Example 701]", "IC50": 48.7}, {"smiles": "COc1ccccc1CC[C@@H]1CCc2cc([C@@H]3CC[C@](N)(COP(=O)(O)O)C3)ccc2C1", "note": "[Example 699]", "IC50": 183}]}, {"molecular_target": "S1P1 (membranes prepared from S1P1/CHO cells) (Homo sapiens (Human), UniProt P21453)", "assay": "Receptor [35S] GTPγS binding assay (S1P1 GTPγS)", "type": "biochemical", "conditions": "S1P1/CHO cell membranes", "experimental": "Receptor [^35S] GTPγS Binding Assays: (S1P1 GTPγS/S1P3 GTPγS)\nCompounds were loaded in a 384 Falcon v-bottom plate (0.5 μl/well in a 11 point, 3-fold dilution). Membranes prepared from S1P1/CHO cells or EDG3-Gal5-bla HEK293T cells (EDG3 equivalent S1P3) were added to the compound plate (40 μl/well, final protein 3 μg/well) with MULTIDROP®. [^35S] GTP (1250 Ci/mmol, Perkin Elmer) was diluted in assay buffer: 20 mM HEPES, pH7.5, 10 mM MgCl2, 150 mM NaCl, 1 mM EGTA (ethylene glycol tetraacetic acid), 1 mM DTT (Dithiothreitol), 10 μM GDP, 0.1% fatty acid free BSA, and 10 μg/ml Saponin to 0.4 nM. 40 μl of the [^35S] GTP solution was added to the compound plate with a final concentration of 0.2 nM. The reaction was kept at room temperature for 45 min. At the end of incubation, all the mixtures in the compound plate were transferred to Millipore 384-well FB filter plates via the VELOCITY11® Vprep liquid handler. The filter plate was washed with water 4 times by using the manifold Embla plate washer and dried at 60° C. for 45 min. MicroScint 20 scintillation fluid (30 μl) was added to each well for counting on the Packard TOPCOUNT®. EC50 is defined as the agonist concentration that corresponds to 50% of the Ymax (maximal response) obtained for each individual compound tested. […]", "units": {"EC50": "nM"}, "values": [{"smiles": "COc1cccc(OCC2CCc3cc([C@@H]4CC[C@](N)(COP(=O)(O)O)C4)ccc3C2)c1", "note": "(single isomer, unassigned) [Example 702]", "EC50": 120}, {"smiles": "COc1ccccc1CC[C@@H]1CCc2cc([C@H]3CC[C@](N)(COP(=O)(O)O)C3)ccc2C1", "note": "(single isomer, unassigned) [Example 697]", "EC50": 0.6}]}]}
